Screening results (PubChem)
RXFP1 antagonist: blocks the human relaxin receptor RXFP1; Q9HBX9; HEK293-RXFP1, relaxin-stimulated cAMP HTRF, 30 min; active compounds read low; activity change, negative = inhibition, % at 57.5 µM; 0.59% of 350,000 active; AID 1259400;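 active means activity change of -60% or lower, but not beyond a set lower limit; inconclusive means change between -60% and -40%, or beyond the set limit; inactive means change above -40%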; further: on the % scale 0 is the no-effect control and ±100 the full control effect
gsp antagonist: gsp mutant antagonism; gsp-mutant cells, cAMP HTRF, 30 min; Potency, µM (highest dose often 76.9 µM), without a hit: at the highest dose activity change, negative = inhibition, most hits filed as inhibitors; 0.4% of 340,000 active; AID 624288; calls by dose curve; cell line not stated here;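 further: intracellular cAMP measured with PDE inhibitor Ro 20-1724 present during compound exposure; potency means the concentration at half of the fitted maximal effect; on the % scale 0 is the no-effect control and ±100 the full control effect; nearly all actives have a fitted effect of over 65% in size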
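HTRF cAMP measurement after 30 min RT detection following 30 min, 37C compound treatment alongside […] (added as 300 uM solution) in G418-selected cells seeded at 2000/well and grown 16–24 h.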
gsp ag: gsp mutant agonism; gsp mutant cells, cAMP HTRF, 30 min; Potency, µM (titrated, usually from 76.9 µM), for the others: at the top dose activation (cAMP increase), hits mostly activators; 0.13% of 340,000 active; active means well fitted activation curve with a large enough effect; inconclusive means small, poorly fitted or top-dose-only effect, or another doubt; inactive means no such curve, though single readings can be large or run the other way; cell line not stated here;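 further: phosphodiesterase inhibitor Ro 20-1724 added with compounds to block cAMP breakdown; potency means the concentration at half of the fitted maximal effect; nearly all actives have a fitted effect of over 60% in size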
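Cells in DMEM/10% FBS with G418 were pretreated with compounds in DMSO plus […] (300 uM stock) for 30 min at 37C. cAMP was measured by HTRF (cAMP-d2 plus anti-cAMP antibody-K) after 30 min at room temperature.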
Luc counter: counter-screen: inhibitors of Kinase-Glo firefly luciferase | Q27757 | Kinase-Glo luciferase, ATP luminescence, 8 min | Potency, µM (series often up to 38.3 µM), for the others: at the highest dose activity change, negative = inhibition, most hits filed as inhibitors | 0.28% of 200,000 active; further: potency means the concentration at half of the fitted maximal effect; on the % scale 0 is the no-effect control and ±100 the full control effect; nearly all actives have a fitted effect of over 60% in size
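Compound is pinned into ATP-containing buffer (10 uM ATP, imidazole pH 7.2, 7 mM MgCl2). Kinase-Glo luciferase reagent is then added. Light output is recorded following an 8-min room-temperature incubation.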
RXFP1 agonist: agonists of human relaxin receptor RXFP1; Q9HBX9; HEK293T-RXFP1 cAMP TR-FRET, 30 min; response scale: percent of porcine relaxin response, buffer zero; Potency, µM (doses to about 57.5 µM), for inactives: top-dose activation, hits mostly activators; 0.3% of 370,000 active; further: potency means the concentration at half of the fitted maximal effect; on the % scale 0 is the no-effect control and ±100 the full control effect; nearly all actives have a fitted effect of over 60% in size
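HEK293 cells stably expressing RXFP1, treated 30 min at 37C with compounds plus PDE4 inhibitor Ro 20174; cAMP measured by HTRF TR-FRET. Normalized to buffer and 29 nM porcine relaxin; EC50 by Hill fit.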
miR-21 reporter: raises the signal of a miR-21 reporter | HeLa miR-21 FLuc reporter, luciferase, 48 h | Potency, µM (doses to about 38.3 µM), without a hit: at the top dose reporter change, positive = more light | 340,000 tested, under 10 active | AID 2288; active = well fitted rising curve with a large enough effect; inconclusive = small, poorly fitted or top-dose-only effect; inactive = no such curve, though single readings can be large or run the other way;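 note: % of control where 0% means no effect; miR-21 action dims this reporter so a rising signal means less miR-21 action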
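HeLa cells stably expressing CMV-driven firefly luciferase with a downstream miR-21 binding sequence, endogenously expressing miR-21, were treated with titrations (up to about 40uM final) for 48 hours at 37 degree Celsius. Luciferase luminescence was read after lysis.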
Starred values were filed as active, the others as inactive; ? = inconclusive; . = no result given; [ ] = another dose, or the depositor's remark. Shown are actives, neighbours in structure and some others; about 1% of the full set was active somewhere. Unless noted, the call rests on the fitted dose curve; in most records, active means well fitted curve in the direction sought with a large enough effect; inconclusive means small, poorly fitted or top-dose-only effect, or another doubt; inactive means no such curve, though single readings can be large; an effect the other way counts as inactive or inconclusive.

| nr | structure | RXFP1 antagonist | gsp antagonist | gsp ag |
| --- | --- | --- | --- | --- |
| 1 | CCOC(=O)c1c(C)c(-c2ccccc2)n(CC(=O)Nc2cc(OC)cc(OC)c2)c1C | . | . | . |
| 2 | CCOc1ccccc1Cn1c(=O)sc2ccccc21 | -87* | ? | -3%[15.4 µM] |
| 3 | CNc1ccc(/C=C(\C#N)C(=O)Nc2ccccn2)cc1[N+](=O)[O-] | 19 | 6% | 56%[15.4 µM] |
| 4 | Cc1ccc(C)c(N2CCN(C(=O)C3CCCN(S(=O)(=O)c4ccc5c(c4)oc(=O)n5C)C3)CC2)c1 (stereo not drawn) | . | . | . |
| 5 | Cc1nc2cc(NCc3nc4ccccc4n3Cc3ccccc3)ccc2n1C | . | 1% | ? |
| 6 | Clc1ccc(NCc2nc3ccccc3n2CCOc2ccccc2)cc1 | -61* | . | . |
| 7 | CC(C)COc1ccc(C(=O)Nc2nnc(S(=O)(=O)N(C)Cc3ccco3)s2)cc1 | -30 | . | . |
| 8 | CC(C)(C)C1CCC(CC2=C(O)c3ccccc3C(=O)C2=O)CC1 (stereo not drawn) | -13 | . | . |
| 9 | COc1ccccc1Oc1ccc2c(c1)C(=O)N(c1cccc3ncccc13)C2=O | -89* | ? | -3%[15.4 µM] |
| 10 | CCOC(=O)Cc1ccc(NC(=O)N2CCC(CN3CCCCCC3)CC2)cc1 | 6 | . | . |
| 11 | CCOc1ccc(CCNC(=O)CSCc2nc(-c3cccc(C)c3)oc2C)cc1OCC | -13 | . | . |
| 12 | COc1ccccc1CNC(=O)CSc1ccc(-c2sc(-c3ccccc3)nc2C)nn1 | -16 | . | . |
| 13 | c1ccc2c(c1)Cc1cc3ccccc3nc1-2 | -8 | -14% | -5% |
| 14 | O=C1c2ccccc2-c2nc3ccccc3cc21 | -1 | -5% | 10%[15.4 µM] |
| 15 | Cc1cc(C(=O)CSc2nc3ccccc3[nH]2)c(C)n1CC1CCCO1 (stereo not drawn) | -38 | 32µM* | 7% |

| nr | Luc counter | RXFP1 agonist | miR-21 reporter |
| --- | --- | --- | --- |
| 1 | . | 0% | 16% |
| 2 | 1% | -1% | -4% |
| 3 | . | 18µM* | -3% |
| 4 | . | 0% | 12% |
| 5 | 10µM* | 0% | 1% |
| 6 | . | -1% | -7% |
| 7 | . | -1% | 27% |
| 8 | . | . | . |
| 9 | 1% | 2% | 1% |
| 10 | . | 1% | -2% |
| 11 | . | 0% | 19% |
| 12 | . | 0% | 1% |
| 13 | 10µM* | 1% | -52% |
| 14 | . | 4% | -62% |
| 15 | 0% | -1% | ? |

Remaining list, next part.
| nr | structure | RXFP1 antagonist | gsp antagonist | gsp ag |
| --- | --- | --- | --- | --- |
| 16 | CN(C)c1ccc(NC(=O)N2CCOCC2)cc1 | -69* | ? | 0% |
| 17 | COc1ccc(C(=O)NCCc2sc(-c3cccc(F)c3)nc2C)cc1 | -10 | . | . |
| 18 | COCCN1CCc2nc(SCC(=O)Nc3ccc(C)c(Cl)c3)[nH]c(=O)c2C1 | -18 | . | . |
| 19 | COc1ccccc1C1C2=C(CCCC2=O)N(CC(=O)O)C2=C1C(=O)CCC2 | 2 | -5% | -6% |
| 20 | COc1cc(Br)cc(C2C3=C(CCCC3=O)N(c3ccc(F)cc3)C3=C2C(=O)CCC3)c1O | -6 | 32µM* | ? |
| 21 | CN(C/C=C/c1ccccc1)Cc1cccc2ccccc12 | -69* | -13% | . |
| 22 | OC1(c2ccc(Cl)c(Cl)c2)C[n+]2ccccc2N1Cc1ccccc1 (stereo not drawn) | -69* | 11% | 24%[15.4 µM] |
| 23 | Cc1ccc(S(=O)(=O)Nc2ccccc2C=Nc2cccc(C)c2C)cc1 | -66* | -18% | 2%[15.4 µM] |
| 24 | COc1ccc(Nc2cc(O)c3ncccc3c2)cc1 | . | . | . |
| 25 | CCCOc1ccc(CN2C(=O)C(=O)c3cccc(C)c32)cc1 | -13 | . | . |
| 26 | Cc1ccc(CN2C(=O)C(=O)c3cc(Br)cc(C)c32)cc1 | -62* | . | . |
| 27 | Cc1ccc(-c2nc3ncccc3o2)cc1NC(=O)c1cccs1 | -6 | 35µM* | 7% |
| 28 | Cc1ccc(-c2nc3ncccc3o2)cc1NC(=O)C(C)(C)C | -1 | -11% | -13% |
| 29 | Cc1ccc(S(=O)(=O)c2nc(-c3ccccc3)oc2SCC(=O)NC2CCCCC2)cc1 | -5 | . | . |
| 30 | C#CC(C)(CC)OC(=O)c1ccccc1C(=O)O (stereo not drawn) | 8 | . | . |

| nr | Luc counter | RXFP1 agonist | miR-21 reporter |
| --- | --- | --- | --- |
| 16 | -18% | 0% | -29% |
| 17 | . | 1% | -6% |
| 18 | . | -1% | -2% |
| 19 | . | -2% | 1% |
| 20 | 1% | 0% | -9% |
| 21 | . | 0% | . |
| 22 | . | 0% | ? |
| 23 | 1% | -3% | ? |
| 24 | . | 0% | . |
| 25 | . | -2% | ? |
| 26 | . | 1% | ? |
| 27 | 3% | 0% | -9% |
| 28 | . | 3% | -5% |
| 29 | . | 5% | 3% |
| 30 | . | . | . |

Results in sequence from the list:
RXFP1 agonist for nos. 17–27 → 1%, -1%, -2%, 0%, 0%, 0%, -3%, 0%, -2%, 1%, 0%
miR-21 reporter for nos. 17–27 → -6%, -2%, 1%, -9%, ., ?, ?, ., ?, ?, -9%

Additional records:
| nr | structure | RXFP1 antagonist | gsp antagonist | gsp ag |
| --- | --- | --- | --- | --- |
| 31 | O=C(COc1cccc2ccccc12)Nc1cc(Cl)ccc1C(=O)O | -81* | ? | 15%[15.4 µM] |
| 32 | CCOc1ccc(-n2c(=O)c3c4c(sc3n(Cc3cccc(Cl)c3)c2=O)CCCC4)cc1 | 2 | . | . |
| 33 | COc1cccc(C(=O)COc2ccc3c(C)c(Cc4ccccc4)c(=O)oc3c2)c1 | 6 | 12% | 0%[15.4 µM] |
| 34 | Cc1c(C)c2ccc(OCC(=O)c3ccccc3)cc2oc1=O | -2 | 35µM* | ? |
| 35 | COC(=O)c1c(NC(NC(=O)C(C)C)C(Cl)(Cl)Cl)sc2c1CCC2 (stereo not drawn) | -60* | -21% | 1% |
| 36 | COC(=O)c1c(NC(NC(=O)C(C)(C)C)C(Cl)(Cl)Cl)sc2c1CCC2 (stereo not drawn) | -81* | ? | ? |
| 37 | CN(C)[C@@H]1C(=O)C(C(=O)NCN2CCCC2)=C(O)[C@@]2(O)C(=O)C3=C(O)c4c(O)cccc4[C@@](C)(O)C3C[C@@H]12 (stereo partly drawn) | 12 | . | . |
| 38 | COc1ccc2c(c1)sc1nc(-c3ccccc3)cn12 | -21 | -11% | -47% |
| 39 | COc1ccc(-c2cn3c(n2)sc2cc(C(=O)NCc4ccccc4)ccc23)cc1 | 4 | . | . |
| 40 | CCOC(=O)c1cc(NC(=O)CC(C)(C)CC(=O)O)ccc1N1CCCCC1 | -12 | 32µM* | 0% |
| 41 | O=C(NCCc1ccccc1)c1cc(Sc2cccc(Cl)c2)nc2ccccc12 | . | . | . |
| 42 | NC(=O)CC[C@@H]1NC(=O)[C@H](Cc2ccccc2)NC(=O)[C@H](Cc2ccc(O)cc2)NC(=O)CCSSC[C@@H](C(=O)N2CCC[C@H]2C(=O)N[C@@H](CCCN=C(N)N)C(=O)NCC(N)=O)NC(=O)[C@H](CC(N)=O)NC1=O | 11 | . | . |
| 43 | O=C(CCS(=O)(=O)c1ccccc1)N(CCCN1CCOCC1)c1nc2c(F)cccc2s1 | -74* | 1% | -5% |
| 44 | O=S(=O)(CCC(F)=C(F)F)c1nnnn1C1CCCCC1 | . | . | . |
| 45 | COc1cccc(-c2nnc(SC(C(=O)c3c[nH]c4ccccc34)c3ccccc3)n2C)c1 (stereo not drawn) | -77* | ? | -4%[15.4 µM] |
| 46 | COc1ccccc1-c1nnc(SCC(=O)NC2CC2)n1C | -1 | 4% | -57% |
| 47 | COc1cccc(-c2nnc(SCCC(=O)O)n2C)c1 | -10 | 9% | 1% |

| nr | Luc counter | RXFP1 agonist | miR-21 reporter |
| --- | --- | --- | --- |
| 31 | . | 2% | 5% |
| 32 | . | 1% | -3% |
| 33 | 1% | 0% | -4% |
| 34 | . | 22% | -20% |
| 35 | 0% | 0% | 14% |
| 36 | -4% | -1% | 1% |
| 37 | . | . | . |
| 38 | 10µM* | 0% | ? |
| 39 | . | 3% | -2% |
| 40 | . | 2% | -12% |
| 41 | . | 5% | -7% |
| 42 | . | . | . |
| 43 | . | 1% | . |
| 44 | 0% | . | . |
| 45 | -1% | 0% | 18% |
| 46 | . | 2% | . |
| 47 | -3% | 0% | -4% |

Compound profiles, as listed above.
Shown for `COC(=O)c1c(NC(NC(=O)C(C)(C)C)C(Cl)(Cl)Cl)sc2c1CCC2` (stereo not drawn) → RXFP1 antagonist = -81*; gsp antagonist = ?; gsp ag = ?; Luc counter = -4%; RXFP1 agonist = -1%; miR-21 reporter = 1%
Shown for `O=C(CCS(=O)(=O)c1ccccc1)N(CCCN1CCOCC1)c1nc2c(F)cccc2s1` → RXFP1 antagonist = -74*; gsp antagonist = 1%; gsp ag = -5%; Luc counter = .; RXFP1 agonist = 1%; miR-21 reporter = .
